Data: ChEMBL document CHEMBL1131534, “Human P2Y1 receptor: molecular modeling and site-directed mutagenesis as tools to identify agonist and antagonist recognition sites” (J Med Chem, 1998)

Chains of the proteins cited; added tags and fusions are not shown.
UniProt P47900, whole entry H132A: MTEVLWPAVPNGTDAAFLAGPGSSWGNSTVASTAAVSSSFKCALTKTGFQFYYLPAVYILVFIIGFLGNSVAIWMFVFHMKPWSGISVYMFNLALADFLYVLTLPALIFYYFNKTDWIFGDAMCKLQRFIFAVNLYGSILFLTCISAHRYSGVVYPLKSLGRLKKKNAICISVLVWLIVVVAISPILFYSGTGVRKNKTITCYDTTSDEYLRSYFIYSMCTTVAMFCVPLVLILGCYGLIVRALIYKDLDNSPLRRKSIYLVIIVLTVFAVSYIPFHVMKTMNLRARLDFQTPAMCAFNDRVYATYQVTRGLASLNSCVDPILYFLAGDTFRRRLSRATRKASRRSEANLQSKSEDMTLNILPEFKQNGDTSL
UniProt P47900, whole entry S317A: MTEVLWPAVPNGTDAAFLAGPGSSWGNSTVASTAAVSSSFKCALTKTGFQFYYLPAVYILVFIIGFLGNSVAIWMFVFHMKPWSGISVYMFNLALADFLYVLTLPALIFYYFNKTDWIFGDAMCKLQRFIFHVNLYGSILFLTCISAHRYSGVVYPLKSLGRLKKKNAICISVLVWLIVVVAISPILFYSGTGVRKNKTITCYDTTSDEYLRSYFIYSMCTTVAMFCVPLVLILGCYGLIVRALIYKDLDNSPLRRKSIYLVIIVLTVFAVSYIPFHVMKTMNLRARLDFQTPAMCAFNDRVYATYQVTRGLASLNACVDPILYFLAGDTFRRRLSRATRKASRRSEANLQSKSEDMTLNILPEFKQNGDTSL
UniProt P47900, whole entry T221A: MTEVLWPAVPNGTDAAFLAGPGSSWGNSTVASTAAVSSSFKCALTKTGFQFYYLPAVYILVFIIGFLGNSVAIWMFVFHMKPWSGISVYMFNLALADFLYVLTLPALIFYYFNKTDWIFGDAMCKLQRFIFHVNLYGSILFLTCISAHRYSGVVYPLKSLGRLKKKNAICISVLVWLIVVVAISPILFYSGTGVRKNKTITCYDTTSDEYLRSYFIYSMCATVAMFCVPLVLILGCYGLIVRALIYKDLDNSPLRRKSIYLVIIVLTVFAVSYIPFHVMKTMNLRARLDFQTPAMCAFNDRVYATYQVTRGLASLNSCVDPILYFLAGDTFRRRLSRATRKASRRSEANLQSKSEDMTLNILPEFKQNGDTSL
UniProt P47900, whole entry F226A: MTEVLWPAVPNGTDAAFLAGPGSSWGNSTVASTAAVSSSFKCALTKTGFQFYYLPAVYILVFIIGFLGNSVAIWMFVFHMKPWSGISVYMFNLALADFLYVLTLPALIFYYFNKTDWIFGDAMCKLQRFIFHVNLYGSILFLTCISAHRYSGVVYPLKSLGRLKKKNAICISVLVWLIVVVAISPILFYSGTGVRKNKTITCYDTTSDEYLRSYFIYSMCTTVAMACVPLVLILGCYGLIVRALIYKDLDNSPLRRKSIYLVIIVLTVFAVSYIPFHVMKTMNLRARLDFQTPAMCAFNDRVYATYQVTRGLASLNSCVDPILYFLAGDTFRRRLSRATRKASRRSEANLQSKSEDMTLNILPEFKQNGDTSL
UniProt P47900, whole entry Q307A: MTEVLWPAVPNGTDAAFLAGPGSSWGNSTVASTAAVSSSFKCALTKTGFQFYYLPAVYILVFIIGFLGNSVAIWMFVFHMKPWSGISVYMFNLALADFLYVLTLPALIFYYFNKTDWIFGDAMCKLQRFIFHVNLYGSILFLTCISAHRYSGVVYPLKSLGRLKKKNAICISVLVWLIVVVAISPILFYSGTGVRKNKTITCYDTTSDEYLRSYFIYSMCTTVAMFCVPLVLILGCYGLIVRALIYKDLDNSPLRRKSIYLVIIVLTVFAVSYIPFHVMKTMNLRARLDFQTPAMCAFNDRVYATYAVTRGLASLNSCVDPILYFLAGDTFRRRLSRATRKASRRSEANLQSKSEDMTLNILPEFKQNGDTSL
UniProt P47900, whole entry S314T: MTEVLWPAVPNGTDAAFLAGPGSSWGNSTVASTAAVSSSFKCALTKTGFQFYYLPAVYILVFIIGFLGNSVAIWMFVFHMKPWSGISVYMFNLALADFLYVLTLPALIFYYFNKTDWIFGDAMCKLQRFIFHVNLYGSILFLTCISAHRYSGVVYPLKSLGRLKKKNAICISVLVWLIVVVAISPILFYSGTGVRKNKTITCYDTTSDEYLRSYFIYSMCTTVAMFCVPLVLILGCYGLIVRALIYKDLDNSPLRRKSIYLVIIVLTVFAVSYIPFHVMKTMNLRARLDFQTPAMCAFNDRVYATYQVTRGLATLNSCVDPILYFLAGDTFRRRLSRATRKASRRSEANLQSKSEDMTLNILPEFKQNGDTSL
UniProt P47900, whole entry T222A: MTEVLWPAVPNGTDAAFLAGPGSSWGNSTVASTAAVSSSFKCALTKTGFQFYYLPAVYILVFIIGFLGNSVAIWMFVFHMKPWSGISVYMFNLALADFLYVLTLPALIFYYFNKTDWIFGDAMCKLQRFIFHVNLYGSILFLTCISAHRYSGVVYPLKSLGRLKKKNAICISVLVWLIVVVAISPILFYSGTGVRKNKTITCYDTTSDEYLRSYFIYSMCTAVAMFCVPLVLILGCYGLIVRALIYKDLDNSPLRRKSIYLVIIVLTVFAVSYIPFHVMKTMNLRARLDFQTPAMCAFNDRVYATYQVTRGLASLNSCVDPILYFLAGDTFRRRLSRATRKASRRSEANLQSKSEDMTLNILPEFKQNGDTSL
UniProt P47900, whole entry K280A: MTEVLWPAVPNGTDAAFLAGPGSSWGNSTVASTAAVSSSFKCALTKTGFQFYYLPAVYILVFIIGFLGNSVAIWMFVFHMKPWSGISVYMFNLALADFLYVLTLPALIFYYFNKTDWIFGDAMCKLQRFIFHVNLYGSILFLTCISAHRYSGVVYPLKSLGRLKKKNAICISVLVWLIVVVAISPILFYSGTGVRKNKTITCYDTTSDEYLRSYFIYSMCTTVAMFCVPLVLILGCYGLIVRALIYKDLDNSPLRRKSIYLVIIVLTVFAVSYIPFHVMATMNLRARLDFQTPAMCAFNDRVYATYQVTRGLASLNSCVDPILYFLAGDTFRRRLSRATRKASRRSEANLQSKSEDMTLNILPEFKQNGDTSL
UniProt P47900, whole entry F131A: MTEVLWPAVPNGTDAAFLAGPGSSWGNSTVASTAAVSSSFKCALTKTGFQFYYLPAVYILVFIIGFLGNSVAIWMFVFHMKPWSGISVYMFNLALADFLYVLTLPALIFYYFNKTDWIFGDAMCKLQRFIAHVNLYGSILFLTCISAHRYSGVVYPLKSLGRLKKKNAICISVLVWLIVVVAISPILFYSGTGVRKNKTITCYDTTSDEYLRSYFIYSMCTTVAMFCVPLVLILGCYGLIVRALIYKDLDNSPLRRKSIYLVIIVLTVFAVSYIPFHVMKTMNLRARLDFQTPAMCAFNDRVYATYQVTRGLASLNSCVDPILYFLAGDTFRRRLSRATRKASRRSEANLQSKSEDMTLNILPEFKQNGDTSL
UniProt P47900, whole entry Y136A: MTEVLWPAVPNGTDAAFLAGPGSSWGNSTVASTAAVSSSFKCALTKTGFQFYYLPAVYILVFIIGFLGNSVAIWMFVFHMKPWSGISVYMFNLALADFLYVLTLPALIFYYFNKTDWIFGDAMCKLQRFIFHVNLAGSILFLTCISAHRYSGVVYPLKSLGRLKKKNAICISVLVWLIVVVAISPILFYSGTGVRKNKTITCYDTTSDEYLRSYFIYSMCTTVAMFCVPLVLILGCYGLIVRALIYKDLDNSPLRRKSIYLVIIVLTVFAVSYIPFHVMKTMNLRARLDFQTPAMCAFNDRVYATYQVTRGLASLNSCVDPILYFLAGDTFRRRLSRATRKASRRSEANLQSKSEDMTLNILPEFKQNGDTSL
UniProt P47900, whole entry R310K: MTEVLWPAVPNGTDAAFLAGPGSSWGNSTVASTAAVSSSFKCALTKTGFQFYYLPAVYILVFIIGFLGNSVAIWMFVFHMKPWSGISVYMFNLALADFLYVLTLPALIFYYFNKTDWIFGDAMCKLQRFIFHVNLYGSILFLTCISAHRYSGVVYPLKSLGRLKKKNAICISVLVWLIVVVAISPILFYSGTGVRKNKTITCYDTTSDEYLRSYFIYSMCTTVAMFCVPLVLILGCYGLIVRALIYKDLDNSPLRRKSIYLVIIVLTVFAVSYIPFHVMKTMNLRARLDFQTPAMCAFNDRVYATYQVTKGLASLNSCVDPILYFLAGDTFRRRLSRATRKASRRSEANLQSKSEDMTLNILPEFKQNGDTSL
UniProt P47900, whole entry H277A: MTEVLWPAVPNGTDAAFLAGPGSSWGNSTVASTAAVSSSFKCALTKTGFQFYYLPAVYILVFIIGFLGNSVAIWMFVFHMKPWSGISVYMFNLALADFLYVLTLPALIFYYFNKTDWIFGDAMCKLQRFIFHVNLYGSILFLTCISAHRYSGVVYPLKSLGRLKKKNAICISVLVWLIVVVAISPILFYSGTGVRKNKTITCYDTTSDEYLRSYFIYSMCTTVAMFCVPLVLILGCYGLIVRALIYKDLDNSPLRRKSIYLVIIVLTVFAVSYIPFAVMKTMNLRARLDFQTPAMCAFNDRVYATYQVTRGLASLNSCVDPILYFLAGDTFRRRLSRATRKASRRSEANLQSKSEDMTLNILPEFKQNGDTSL

Legend:
Type in all cases: functional
[1] = target: T1, P2Y purinoceptor 1 (Homo sapiens, UniProt P47900, H132A); experiment: Compound was measured for the antagonism of the activation of phospholipase C in mutant(H132A) human P2Y1 receptor in presence of MRS2179 (P<0.005)
[2] = target: T1, P2Y purinoceptor 1; experiment: Compound was measured for the antagonism of the activation of phospholipase C in mutant(H132A) human P2Y1 receptor.
[3] = target: T2, P2Y purinoceptor 1 (Homo sapiens, UniProt P47900, S317A); experiment: Compound was measured for the antagonism of the activation of phospholipase C in mutant(S317A) human P2Y1 receptor in presence of MRS2179
[4] = target: T3, P2Y purinoceptor 1 (Homo sapiens, UniProt P47900, T221A); experiment: Compound was measured for the antagonism of the activation of phospholipase C in mutant(T221A) human P2Y1 receptor.
[5] = target: T4, P2Y purinoceptor 1 (Homo sapiens, UniProt P47900, F226A); experiment: Compound was measured for the antagonism of the activation of phospholipase C in mutant(F226A) human P2Y1 receptor in presence of MRS2179.
[6] = target: T2, P2Y purinoceptor 1; experiment: Compound was measured for the antagonism of the activation of phospholipase C in mutant(S317A) human P2Y1 receptor.
[7] = target: T5, P2Y purinoceptor 1 (Homo sapiens, UniProt P47900, Q307A); experiment: Compound was measured for the antagonism of the activation of phospholipase C in mutant(Q307A) human P2Y1 receptor.
[8] = target: T6, P2Y purinoceptor 1 (Homo sapiens, UniProt P47900, S314T); experiment: Compound was measured for the antagonism of the activation of phospholipase C in mutant(S314T) human P2Y1 receptor in presence of MRS2179
[9] = target: T7, P2Y purinoceptor 1 (Homo sapiens, UniProt P47900, T222A); experiment: Compound was measured for the antagonism of the activation of phospholipase C in mutant(T222A) human P2Y1 receptor.
[10] = target: T4, P2Y purinoceptor 1; experiment: Compound was measured for the antagonism of the activation of phospholipase C in mutant(F226A) human P2Y1 receptor.
[11] = target: T8, P2Y purinoceptor 1 (Homo sapiens, UniProt P47900, K280A); experiment: Compound was measured for the antagonism of the activation of phospholipase C in mutant(K280A) human P2Y1 receptor.
[12] = target: T7, P2Y purinoceptor 1; experiment: Compound was measured for the antagonism of the activation of phospholipase C in mutant(T222A) human P2Y1 receptor in presence of MRS2179 (P<0.005)
[13] = target: P2Y purinoceptor 1 (Homo sapiens, UniProt P47900, F131A); experiment: Compound was measured for the antagonism of the activation of phospholipase C in mutant(F131A) human P2Y1 receptor.
[14] = target: T8, P2Y purinoceptor 1; experiment: Compound was measured for the antagonism of the activation of phospholipase C in mutant(K280A) human P2Y1 receptor in presence of MRS2179
[15] = target: T3, P2Y purinoceptor 1; experiment: Compound was measured for the antagonism of the activation of phospholipase C in mutant(T221A) human P2Y1 receptor in presence of MRS2179 (P<0.005)
[16] = target: T9, P2Y purinoceptor 1 (Homo sapiens, UniProt P47900, Y136A); experiment: Compound was measured for the antagonism of the activation of phospholipase C in mutant(Y136A) human P2Y1 receptor in presence of MRS2179 (P<0.005)
[17] = target: T10, P2Y purinoceptor 1 (Homo sapiens, UniProt P47900, R310K); experiment: Compound was measured for the antagonism of the activation of phospholipase C in mutant(R310K) human P2Y1 receptor in presence of MRS2179
[18] = target: T5, P2Y purinoceptor 1; experiment: Compound was measured for the antagonism of the activation of phospholipase C in mutant(Q307A) human P2Y1 receptor in presence of MRS2179
[19] = target: T11, P2Y purinoceptor 1 (Homo sapiens, UniProt P47900); experiment: Compound was measured for the antagonism of the activation of phospholipase C in mutant(WT) human P2Y1 receptor.
[20] = target: T9, P2Y purinoceptor 1; experiment: Compound was measured for the antagonism of the activation of phospholipase C in mutant(Y136A) human P2Y1 receptor.
[21] = target: T12, P2Y purinoceptor 1 (Homo sapiens, UniProt P47900, H277A); experiment: Compound was measured for the antagonism of the activation of phospholipase C in mutant(H277A) human P2Y1 receptor.
[22] = target: T10, P2Y purinoceptor 1; experiment: Compound was measured for the antagonism of the activation of phospholipase C in mutant(R310K) human P2Y1 receptor.
[23] = target: T11, P2Y purinoceptor 1; experiment: Compound was measured for the antagonism of the activation of phospholipase C in mutant(WT) human P2Y1 receptor in presence of MRS2179 (P<0.005)
[24] = target: T6, P2Y purinoceptor 1; experiment: Compound was measured for the antagonism of the activation of phospholipase C in mutant(S314T) human P2Y1 receptor.
[25] = target: T12, P2Y purinoceptor 1; experiment: Compound was measured for the antagonism of the activation of phospholipase C in mutant(H277A) human P2Y1 receptor in presence of MRS2179

EC50 [1]: 0.053 µM
EC50 [2]: 0.0177 µM
EC50 [3]: 0.0121 µM
EC50 [4]: 0.00245 µM
EC50 [5]: 0.027 µM
EC50 [6]: 0.00188 µM
EC50 [7]: 0.323 µM
EC50 [8]: 0.0309 µM
EC50 [9]: 0.0109 µM
EC50 [10]: 0.0195 µM
EC50 [11]: 1.52 µM
EC50 [12]: 0.025 µM
EC50 [13]: 0.0192 µM
EC50 [14]: 1.58 µM
EC50 [15]: 0.0124 µM
EC50 [16]: 0.036 µM
EC50 [17]: 2.27 µM
EC50 [18]: 0.378 µM
EC50 [19]: 0.00194 µM
EC50 [20]: 0.0123 µM
EC50 [21]: 0.115 µM
EC50 [22]: 0.324 µM
EC50 [23]: 0.0129 µM
EC50 [24]: 0.0104 µM
EC50 [25]: 0.738 µM
Compound: CSc1nc(N)c2ncn([C@@H]3O[C@H](COP(=O)(O)OP(=O)(O)O)[C@@H](O)[C@H]3O)c2n1
